What was measured:
5-HT2 = molecular target: T1, 5-HT2 (Rattus norvegicus, UniProt P14842); experiment: Radioligand binding, 5-HT2 sites labeled by ^3 H-spiperone, rat cortex; conditions: used for Ki calculation
T1 construct: rat brain were purchased from Pel-Freez; tissue Pel-Freez (Roger, AR); host or cells: rat brain (cortex) membranes
Protocol: (§1) Radioligand binding studies were performed described in Peroutka et al., Molecular Pharmacology (1979) 16:687-699. Briefly, rat brain were purchased from Pel-Freez (Roger, AR). On the day of study, the samples were thawed in Tris-HCl buffer. Tissues were homogenized in 20 volumes Tris-HCl buffer (pH 7.7 at 25° C.) using a Brinkmann Polytron and then centrifuged in an IEC B20A centrifuge at 49,000×g for 10 min. The supernatant was discarded, and the pellet was resuspended in the same volume of Tris-HCl buffer and incubated at 37° C. for 10 min prior to a second centrifugation at 49,000×g for 10 min. The final pellet was resuspended in 80 volumes of Tris-HCl buffer containing 10 μM pargyline, 4 mM calcium chloride and 0.1% ascorbic acid. The suspensions were immediately used in the binding assay. […] Following incubation at 25° C. for 30 minutes, the assays were rapidly filtered under vacuum through #32 glass filters (Schleicher and Scheull: Keene, NH) with two 5 ml washes using 50 mM Tris-HCl buffer. Radioactivity was measured by liquid scintillation spectroscopy in […] of 3a70 Counting Cocktail (Research Products International: Mt. Prospect, IL) at 54% efficiency. […] All drugs were diluted and dissolved in assay buffer.
(§2) Each experiment was performed in triplicate and repeated 3 to 6 times.

Chains of the proteins cited; added tags and fusions are not shown.
UniProt P14842, whole entry: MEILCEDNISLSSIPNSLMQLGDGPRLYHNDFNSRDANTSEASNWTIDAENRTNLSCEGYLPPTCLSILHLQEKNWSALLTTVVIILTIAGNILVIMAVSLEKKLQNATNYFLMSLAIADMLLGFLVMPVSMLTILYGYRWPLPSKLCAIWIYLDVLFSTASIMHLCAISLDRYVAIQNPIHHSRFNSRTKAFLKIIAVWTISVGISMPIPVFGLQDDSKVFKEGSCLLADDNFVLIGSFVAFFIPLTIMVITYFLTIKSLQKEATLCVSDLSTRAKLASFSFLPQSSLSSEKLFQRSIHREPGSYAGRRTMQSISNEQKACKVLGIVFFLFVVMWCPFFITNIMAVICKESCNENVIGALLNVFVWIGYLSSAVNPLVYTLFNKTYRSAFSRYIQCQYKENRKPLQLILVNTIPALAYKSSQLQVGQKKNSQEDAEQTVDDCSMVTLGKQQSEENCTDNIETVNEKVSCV

β-adrenergic receptors = experiment: Radioligand binding, β-adrenergic receptors labeled by ^3 H-dihydroalprenolol (^3 H-DHA), rat cortex
Protocol: as §1, §2

Row | Compound | Kd (5-HT2) | selectivity for β-adrenergic receptors (in words) (β-adrenergic receptors)
1 | O=C(CCCN1CCC2(CC1)C(=O)NCN2c1ccccc1)c1ccc(F)cc1 [^3 H-spiperone, reference compound] | 0.71 nM | –
2 | CC(C)(NC(=O)CBr)[C@H]1CC[C@@](C)(NCC(O)COc2cccc3[nH]ccc23)CC1 (stereo partly drawn) [Compound 8, N^8-(Bromoacetyl)-N^1-[3-(4-indolyloxy)-2-hydroxypropyl]-(Z)-1,8-diamino-p-menthane] | – | most selective for β-adrenergic receptors
3 | CC(C)(NCC(O)COc1cccc2[nH]c(C#N)cc12)[C@H]1CC[C@@](C)(NC(=O)CBr)CC1 (stereo partly drawn) [Compound 11] | – | most selective for β-adrenergic receptors

— patent US5229412A, “Method for relieving anxiety using 5-hydroxytryptamine-1A-receptor-binding compounds” (The Board of Trustees of the Leland Stanford Junior …, priority 1988, dated 1993)
